Test results as given in PubChem BioAssay AID1961 (Sanford-Burnham Center for Chemical Genomics, 2009).
The entries are a selection whose mix differs from that of the whole data set. Some results for these compounds are left out of this collection, so the calls shown say nothing about other tests. Calls of active or inactive are those of the source.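 Rule for the calls: active = activation above 40% with more than 50 cells counted in the well; inconclusive = wells holding fewer than 50 cells, flagged as toxic or sparse; inactive = the rest.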

Sequences of proteins named here, by UniProt entry; tags and fusion partners are left off.
UniProt Q9Y2T6, whole entry: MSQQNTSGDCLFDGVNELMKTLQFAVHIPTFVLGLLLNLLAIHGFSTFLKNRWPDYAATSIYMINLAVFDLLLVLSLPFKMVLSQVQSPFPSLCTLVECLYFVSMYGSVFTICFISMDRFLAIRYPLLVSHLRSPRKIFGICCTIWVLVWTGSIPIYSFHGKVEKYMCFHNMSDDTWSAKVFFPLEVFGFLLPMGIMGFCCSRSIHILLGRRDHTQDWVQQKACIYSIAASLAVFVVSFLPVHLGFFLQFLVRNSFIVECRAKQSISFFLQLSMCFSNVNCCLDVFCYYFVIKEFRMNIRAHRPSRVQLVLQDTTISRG

Molecular target: G-protein coupled receptor 55 (Homo sapiens) (UniProt Q9Y2T6)
Experiment: selective activators of receptor GPR55 – imaging, U2OS cells, beta-arrestin-GFP redistribution, primary screen (AID 1961);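 note: U2OS osteosarcoma cells stably expressing GPR55 and beta-arrestin-GFP; plate controls were DMSO negative control for no effect and LPI positive control for full effect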
Details: at 10 µM, stronger effect = higher value

Row | SMILES | activation
1 | CC(C)N1C(=O)CC2(CCN(CCOC(=O)C(O)(c3ccccc3)c3ccccc3)CC2)C1=O | inactive: 0%
2 | CCN(CC)CC(C)C(C)OC(=O)C(O)(c1ccccc1)c1ccccc1 (centres undefined) | inactive: 0.4%
3 | COc1cc(SC)ccc1C(=O)NCC1(N(C)C)CCCCC1 | inactive: 0%
4 | Cc1ccc(C(=O)NCC2(N3CCCCC3)CCCCC2)cc1 | inactive: -0.2%
5 | O=C(NCC1(N2CCCCC2)CCCCC1)c1cc([N+](=O)[O-])ccc1Cl | inactive: 0.4%
6 | CN1[C@@H]2CC[C@H]1CC(OC(=O)C(O)(c1ccccc1)c1ccccc1)C2 (some centres undefined) | inactive: -0.1%
7 | C=CCN1CCN(CCOC(=O)C(O)(c2ccccc2)c2ccccc2)CC1 | inactive: 0%
8 | O=C(NCC1(N2CCCCC2)CCCCC1)c1cc(F)c(F)cc1Cl | inactive: -0.2%
9 | CCN1CCCC(OC(=O)C2(O)c3ccccc3C=Cc3ccccc32)C1 (centres undefined) | inactive: -0.3%
10 | Cc1cc(C(=O)NCC2(N3CCCCC3)CCCCC2)ccc1[N+](=O)[O-] | inactive: -0.1%
11 | O=C(NCC1(N2CCCCC2)CCCCC1)c1cccc(Br)c1 | inactive: 0.3%
12 | COc1ccc(C(=O)NCC2(N(C)C)CCCCC2)cc1 | inactive: -0.1%
13 | Cc1ccccc1C(=O)NCC1(N2CCCCC2)CCCCC1 | inactive: 0.7%
14 | CN(C)c1ccc(C(=O)NCC2(N(C)C)CCCCC2)cc1 | inactive: 0%
15 | CN(C)C1CCCC1OC(=O)C(O)(c1ccccc1)c1ccccc1 (centres undefined) | inactive: -0.1%
16 | COc1cccc(C(=O)NCC2(N3CCCCC3)CCCCC2)c1 | inactive: -0.7%
17 | COc1ccc(Cl)cc1C(=O)NCC1(N(C)C)CCCCC1 | inactive: 0.4%
18 | O=C(NCC1(N2CCCCC2)CCCCC1)c1cccc(Cl)c1 | inactive: 0.5%
19 | CN(C)C1(CNC(=O)c2ccc(Br)cc2)CCCCC1 | inactive: -0.3%
20 | COc1cc(C(=O)NCC2(N(C)C)CCCCC2)c([N+](=O)[O-])cc1OC | inactive: -0.1%
21 | COc1ccc(Br)c(C(=O)NCC2(N3CCCCC3)CCCCC2)c1 | inactive: -0.3%
22 | CN(C)c1cccc(C(=O)NCC2(N(C)C)CCCCC2)c1 | inactive: -0.3%
23 | CC(C)Oc1ccc(C(=O)NCC2(N(C)C)CCCCC2)cc1 | inactive: -0.1%
24 | O=C(OC1CN2CCC1CC2)C(CO)(c1ccccc1)c1ccccc1 (centres undefined) | inactive: -0.2%
